Values quoted from earlier work as cited in patent publication US12100485B2, “Machine learning and molecular simulation based methods for enhancing binding and activity prediction” (The Board of Trustees of the Leland Stanford Junior …, priority 2018, dated 2024).
Only a part of the results on these compounds is given; other tests are left out.

Test system: μOR
Conditions: known pharmacology, training dataset

bezitramide
Action: agonist
